The values below are quoted from earlier work in US9980489B2, “Stabilized bio-available soluble silicate solution” (priority 2010, dated 2018).

For this data set the following is noted: cited from earlier work.

Take monosilicic acid Si(OH)4: the “lowest pKa value” was 9.8.
